The text below walks through data of patent US6468971B1, “Maintaining kidney function during surgery or trauma” (Board of Supervisors of Louisiana State University and …, priority 1998, dated 2002).

Data set [1] concerns rats during surgery under isoflurane anesthesia.
Data set [2] concerns rats anesthetized with Inactin. The note with it: 10 mg/kg subcutaneous, cited from earlier work.
Data set [3] has as its system conscious rats. The note with it: intravenous infusion 20 μg/kg/min; cited from earlier work.
For data set [4] the following is noted: in vivo; cited from earlier work.
In data set [5] the test system is dogs anesthetized with sodium pentobarbital. The note with it: cited from earlier work.
The subject of data set [6] is conscious rats. As to the kind of experiment: Intravenous infusion of U-50,488H in conscious rats. The note with it: intravenous infusion (55 μl/min) 25 μg/kg/min.
Data set [7] deals with dogs anesthetized with sodium pentobarbital. In words: U-50,488-induced diuresis in pentobarbital-anesthetized dogs (Slizgi et al.).
Data set [8] deals with isoflurane-anesthetized rats under surgery. As to the kind of experiment: Renal response to drug given after start of surgery and isoflurane anesthesia. The class given is in vivo, Sprague-Dawley rat.
For the next data set, the system named is conscious humans. The conditions noted are these: cited from earlier work.
Where [9] appears, read: pretreatment in conscious state, continued infusion 60-120 minutes.
Setting [10] is: continuous infusion for 10 hours, single female rat.
Setting [11] is: dissolved in 5% dextrose in water (D5W), infusion 6 hours, single rat.
Where [12] appears, read: continuous intravenous infusion after start of surgery and isoflurane.

Where two headings read alike, the source gives them in different places.

As for “(5-α,7-α,8-β)-(−)-N-methyl-N-[7-(1-pyrrolidinyl)-1-oxaspiro(4,5)-dec-8-yl]-benzeneacetamide”, in [1] (setting [9]), the “effect on urine flow rate during surgery and isoflurane anesthesia” value was “did not completely prevent a decrease in urine output”; the urinary potassium excretion entry was “remained low”; the urinary sodium excretion entry is reported as “remained low”; the urine osmolality entry is recorded as “remained low”. Besides, the urine flow rate in data set [1] (time 0, thiopental anesthesia and surgery, after pretreatment in the conscious state (100 μg/kg/min; tifluadom 50 μg/kg/min)) was 39 µL/min. The compound also registered a urine flow rate in [1] (time 10 after start of isoflurane, continued infusion) of 54 µL/min. Further, in data set [1] (time 20 min after start of isoflurane, continued infusion), the urine flow rate stood at 13 µL/min.

Regarding `CN(C(=O)Cc1ccc(Cl)c(Cl)c1)[C@@H]1CCCC[C@H]1N1CCCC1.CS(=O)(=O)O.O` (racemic), the “urinary flow, peak” value in data set [2] (60 minutes after injection, baseline about 150 μl/min) is “about 220 μl/min”. Also, the urine flow result in data set [2] (200 minutes after injection) is “about 90 μl/min”. The “urine flow rate during infusion” value in data set [1] (100 μg/kg/min, pretreated 15 minutes conscious, infusion 60 minutes under isoflurane and surgery) was in the range of 50 to 70 µL/min. Besides, in data set [1] (setting [10]), the urinary sodium excretion entry is recorded as “remained low for several hours (time 0-5 hours), but increased substantially after urinary potassium excretion had reached its peak (time 6-10 hours)” and the urine flow rate result is “remained elevated for the entire ten hour duration of U-50,488H infusion”. For the same compound, in data set [1] (continuous infusion for 10 hours, single female rat, after the first hour), the urinary potassium excretion entry is “rose slowly for a time (time 1-3 hours), and then more rapidly (time 4-10 hours)”. In [1] (setting [11]), the urinary potassium excretion entry is “initial decrease (time 1-2 hours), but returned to a steady level”; the urinary sodium excretion entry is recorded as “remained low at all times”; the urine output entry is “maintained urine output during surgery and anesthesia for the duration of the study”. Moreover, the “time urine flow rate remained at similar level after stopping the infusion” value in data set [1] (infusion stopped at time 60, saline thereafter) fell in the range of 100 to 120 min. Further, the urinary calcium excretion result in data set [1] (intravenous infusion 100 μg/kg/min (not illustrated)) is “reduced urinary calcium excretion”. In [1] (setting [9]), the “effect on urine flow rate during surgery and isoflurane anesthesia” value is reported as “completely prevented the reduction in urine flow rate”; the urinary potassium excretion entry was “remained low”; the urinary sodium excretion entry is given as “remained low”; the urine osmolality result was “tended to increase toward the end of the study”. For the same compound, in the data set with conscious rats [3], the “duration of diuretic response” value was 60 to 80 min; the “magnitude of diuretic response, increase over baseline” value is 150 to 200 µg/min; the “onset of diuretic response” value is 10 min; the “time of peak magnitude of diuretic response” value was 30 to 40 min. Besides, in data set [4], the pharmacokinetic half-life is 30 min. In addition, the “increase in urine flow rate” value in data set [5] (single i.v. dose 0.2 mg/kg) is listed as 2.5 fold. In data set [5] (single i.v. dose 5 mg/kg), the “increase in urine flow rate” value was 7 fold. Moreover, the “urine flow rate response” value in data set [5] (single i.v. dose 0.2, 1 or 5 mg/kg) is recorded as “dose-dependent increase in urine flow rate, peaking within two hours”. Besides, in the data set with conscious rats [6], the diuresis entry is listed as “marked diuresis”. Besides, the urine flow rate result in data set [7] (single i.v. dose 0.2 mg/kg) was “approximately 0.078 ml/min/kg”. Further, the urine flow rate entry in data set [7] (single i.v. dose 5 mg/kg, from estimated basal level) is “approximately 0.329 ml/min/kg”. For the same compound, the diuretic effect entry in data set [8] (25 μg/kg/min, during surgery and isoflurane anesthesia) is “completely ineffective as a diuretic”. Also, in [8] (setting [12]), the urinary potassium excretion entry was “remained at low levels” and the urinary sodium excretion entry is on record as “remained at low levels”. Also, in data set [8] (continuous intravenous infusion after start of surgery and isoflurane (U-50,488H 100 μg/kg/min)), the “effect on urine flow rate” value was “completely reversed the surgery and isoflurane-impaired urine flow”. Besides, in data set [8] (continuous intravenous infusion after start of surgery and isoflurane (U-50,488H 100 μg/kg/min), saline infusion 55 μl/min), the “urine flow rate, peak” value is reported as “about 120 μl/min”.

For the compound `CN(C(=O)Cc1cccc2occc12)[C@H]1CC[C@@]2(CCCO2)C[C@@H]1N1CCCC1`, the “persistence of adverse effects” value with conscious humans (after intramuscular injection) is reported as “up to 4 hours”. In addition, in the data set with conscious humans (intramuscular, 5 to 25 μg), the negative side effects entry was “dizziness, fatigue, paresthesia, headache, vasodilation (facial flushing), emotional lability, feeling “high,” and abnormal thinking”; the urine flow result is given as “increased urine flow”. In the data set with conscious humans (post-dose, intramuscular injection), the “time to onset of adverse effects” value was 15 to 30 min.
